Experimental data reported in article PMC8958541.

Experiments:
Experiment in all cases: purified protein
Conditions in all cases: 37.0 °C
COC(=O)c1cc(O)c(O)c(O)c1 = tested on: COC(=O)c1cc(O)c(O)c(O)c1
[1] = tested on: O=C(O[C@@H]1O[C@H](CO)[C@@H](O)[C@H](O)[C@H]1O)c1cc(O)c(O)c(O)c1
[2] = tested on: CCCOC(=O)c1cc(O)c(O)c(O)c1

CbTan2 (Clostridium butyricum)
Km (COC(=O)c1cc(O)c(O)c(O)c1): 23.4 ± 2.68 mM | kcat/Km (COC(=O)c1cc(O)c(O)c(O)c1): 7990 M⁻¹ s⁻¹ | Km [1]: 23.0 ± 3.70 mM | kcat/Km [1]: 10200 M⁻¹ s⁻¹ | Km [2]: 22.2 ± 2.26 mM | kcat/Km [2]: 6170 M⁻¹ s⁻¹
